The values below come from paper PMC8472790, “Dual Emissive Ir(III) Complexes for Photodynamic Therapy and Bioimaging” (Pharmaceutics, 2021).

For the series, the system named is A549 cells. In words: Cytotoxicity assay by flow cytometry, Annexin V-DY634 / 7-AAD double staining. Particulars: A549, IC50 to ¼ IC50, dark and irradiation at 470 nm.

Consider [Ir(bzq)2(dpa-acr)]^+ [Complex 4], for which the “Cytotoxic activity (Annexin V / 7-AAD)” value was “concentration-dependent cytotoxic activity”.
